From patent US10413607B2, “Antibody specifically binding to ErbB3 and use thereof” (ISU ABXIS CO., LTD., priority 2015, dated 2019) come the findings set out here.

This test relates to DiFi colon cancer cells. Briefly: Cetuximab resistance, DiFi colorectal cancer cell proliferation with HRG. The note with it: about 72 hours, FIG. 11. Type of test: cell-based. How it is done: Cetuximab is effective in suppressing cancer cell proliferation in DiFi colorectal cancer cells, but loses its efficacy in the presence of HRG due to the activation of an ErbB3 signal transduction pathway. An investigation was carried out to assess the ability of the screened antibodies to overcome resistance to Cetuximab and impart cancer cell proliferation suppression effects.
In particular, DiFi colon cancer cells were incubated in RPMI-1640 medium (Invitrogen) including an antibiotic (Penicillin-Streptomycin, Invitrogen) and 10% FBS. About 1×10^4 DiFi cells were inoculated onto a 96-well plate and incubated at 37° C. under 5% CO2 conditions for about 24 hours. Cetuximab and anti-ErbB3 antibody were mixed together in equal concentrations of 200 μg/mL to obtain an Cetuximab/anti-ErbB3 antibody solution, which was then mixed with an equal amount of HRG (40 ng/mL). The Cetuximab/anti-ErbB3 antibody/HRG solution was applied to a 96-well plate and incubated at 37° C. under 5% CO2 conditions for about 72 hours. Cells cultured without antibodies and HRG were used as a negative control group. The number of viable cells was measured using a CellTiter-Glo luminescent cell viability assay (Promega). Cell proliferation rates were calculated based on the measured results. The results are shown in FIG. 11, in which *** denotes t-test results (p<0.001).

In the case of Cetuximab, the “cell proliferation suppression effect” value is listed as “reduced in the presence of HRG”.
